In publication PMC7723054 one finds binding signal data, which are given here for 22 molecules.

Common to all, as to assay: FOREST: bead pull-down of RNA structure library v1, barcode microarray; U1A/LIN28A: 20 mM HEPES pH 7.5, 80 mM KCl, 20 mM NaCl, 10% glycerol, 2 mM DTT, 0.1 ug/uL BSA, 4 C; BG4/CIRBP/DHX36: 10 mM Tris-HCl pH 7.5, 100 mM KCl (or LiCl),; high values mean tight binding
The target in one test is U1A (Homo sapiens, UniProt P09012).
Another test addresses T1, LIN28A (human?, UniProt Q9H9Z2 1-209).
T1 sequence: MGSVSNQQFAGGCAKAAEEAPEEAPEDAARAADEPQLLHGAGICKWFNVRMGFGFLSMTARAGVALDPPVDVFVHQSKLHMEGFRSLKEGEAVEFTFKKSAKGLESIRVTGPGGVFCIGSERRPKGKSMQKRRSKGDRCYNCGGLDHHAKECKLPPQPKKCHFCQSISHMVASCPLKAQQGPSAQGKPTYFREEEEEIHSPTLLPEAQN

For a further test, the target named is T2, CIRBP (Homo sapiens, UniProt Q14011 1-172).
T2 sequence: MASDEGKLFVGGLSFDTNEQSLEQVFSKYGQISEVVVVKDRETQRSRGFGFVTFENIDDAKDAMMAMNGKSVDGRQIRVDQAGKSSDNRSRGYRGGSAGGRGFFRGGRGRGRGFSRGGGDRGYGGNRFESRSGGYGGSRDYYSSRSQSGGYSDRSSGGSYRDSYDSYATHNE

The target in a further test is T3, DHX36 (Homo sapiens, UniProt Q9H2U1 1-1008).
T3 sequence: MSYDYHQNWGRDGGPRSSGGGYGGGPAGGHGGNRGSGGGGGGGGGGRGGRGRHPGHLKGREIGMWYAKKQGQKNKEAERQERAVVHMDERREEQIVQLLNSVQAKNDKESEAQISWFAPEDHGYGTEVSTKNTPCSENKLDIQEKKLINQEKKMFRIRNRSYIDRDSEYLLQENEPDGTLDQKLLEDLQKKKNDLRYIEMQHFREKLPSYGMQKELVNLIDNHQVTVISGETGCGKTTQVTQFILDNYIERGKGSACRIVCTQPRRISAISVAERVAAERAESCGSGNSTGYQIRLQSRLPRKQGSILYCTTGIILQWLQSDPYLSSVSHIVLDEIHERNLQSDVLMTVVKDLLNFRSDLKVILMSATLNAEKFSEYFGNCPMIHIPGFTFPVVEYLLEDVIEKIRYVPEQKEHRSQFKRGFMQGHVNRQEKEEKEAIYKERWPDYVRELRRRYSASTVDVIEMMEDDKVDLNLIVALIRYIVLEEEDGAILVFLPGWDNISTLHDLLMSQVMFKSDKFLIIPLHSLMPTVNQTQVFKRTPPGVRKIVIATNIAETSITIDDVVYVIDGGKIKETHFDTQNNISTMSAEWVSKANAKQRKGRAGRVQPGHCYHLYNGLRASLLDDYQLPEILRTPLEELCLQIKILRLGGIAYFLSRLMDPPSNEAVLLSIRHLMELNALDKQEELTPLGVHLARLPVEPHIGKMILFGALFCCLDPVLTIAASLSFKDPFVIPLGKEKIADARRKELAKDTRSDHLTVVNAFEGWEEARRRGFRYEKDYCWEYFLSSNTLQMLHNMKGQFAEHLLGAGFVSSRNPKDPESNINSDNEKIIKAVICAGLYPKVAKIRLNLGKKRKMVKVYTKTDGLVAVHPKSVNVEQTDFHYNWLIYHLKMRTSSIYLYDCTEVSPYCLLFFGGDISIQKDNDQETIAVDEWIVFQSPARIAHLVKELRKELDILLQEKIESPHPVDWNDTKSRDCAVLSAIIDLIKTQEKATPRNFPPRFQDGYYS

The other results are listed elsewhere or left out.

B1: hsa-mir-6752 (structured_RNA)
RNA: GGGAAACGACAGUAAUAGCCAAUUCGGCGGUGUACGAAGUUUCAGCUGGAGCCAGGGGGCCCAGGUCUACAGCUUCUCCCCGCUCCCGCUGAAGCUUCGUGCAC
Regarding B1, the binding signal with U1A was 0.0283 z-score; in the test with LIN28A, -0.305 z-score; with CIRBP it was -0.872 z-score; with DHX36 it was 0.447 z-score.

B2: hsa-mir-93 (structured_RNA)
RNA: GGGAAGAGGCAAGGCACCUACGCUCUACGGUGUACGAAGUUUCAGCAGGUAGUGUGAUUACCCAACCUACUGCUGAAGCUUCGUGCAC
For the molecule B2, the binding signal with U1A worked out at 0.0253 z-score; with LIN28A, 1.49 z-score; in the test with CIRBP, 0.92 z-score; in the test with DHX36, 0.687 z-score.

B3: hsa-mir-6715b (structured_RNA)
RNA: GGGAAAAGAAUGGGCAAGUAUGUAACAGGGUGUACGAAGUUUCAGCUGGCAAUUCAGUAAAAAUGCUCAGCUGAAGCUUCGUGCAC
Regarding B3, the binding signal with U1A stood at 0.0255 z-score; in the test with LIN28A, 1.31 z-score; with CIRBP, 2.97 z-score; with DHX36, 1.63 z-score.

B4: hsa-mir-3651 (structured_RNA)
RNA: GGGAACAGAGCAUGAGGAGUAAAUACAGGGUGUACGAAGUUUCAGCAUGGAGGCUGCUUCUCCUCAGCAGCUGCCAUAGCUGAAGCUUCGUGCAC
For B4, the binding signal is 0.0316 z-score with U1A, 1.83 z-score with LIN28A, 1.83 z-score in the test with CIRBP and -0.146 z-score with DHX36.

B5: hsa-mir-550a-3 (structured_RNA)
RNA: GGGACAAUGGCCCUGAAAACAAGCGCUCGGUGUACGAAGUUUCAGCAGAGUCCUGUUGUUGUAAGAUAGUGUCUGCUGAAGCUUCGUGCAC
Regarding B5, the binding signal is 0.0275 z-score with U1A, 0.439 z-score with LIN28A, 0.533 z-score with CIRBP and -0.0673 z-score in the test with DHX36.

B6: hsa-mir-548h-1 (structured_RNA)
RNA: GGGAAACCGCACUUUUCGAAAUAAGCCUGGUGUACGAAGUUUCAGCUGUCAUUACUUUUAAUGGUAGCUGAAGCUUCGUGCAC
B6: the binding signal in the test with U1A is 0.0313 z-score; with LIN28A, -1.64 z-score; in the test with CIRBP, -0.296 z-score; with DHX36, -0.976 z-score.

B7: PARIS_ID17 (structured_RNA)
RNA: GGGACUACGUGCAACUGGAUAGAAAACGGGUGUACGAAGUUUCAGCGCUCUUGGCACAUCUGGUUGGUGACACUGUUUUGUGAGAUGGGUUGAAAGCGCUGAAGCUUCGUGCAC
For B7, the binding signal was 0.0463 z-score with U1A, 1.45 z-score with LIN28A, 0.532 z-score in the test with CIRBP and 0.641 z-score in the test with DHX36.

B8: hsa-mir-523 (structured_RNA)
RNA: GGGAAUGCUCUUCUUCGCGAGCGUGUACGGUGUACGAAGUUUCAGCUUUCUGUUGUCUGAAAGAAAAGAACGCUGAAGCUUCGUGCAC
In the case of B8, the binding signal is 0.0412 z-score with U1A, 0.0209 z-score with LIN28A, -0.638 z-score in the test with CIRBP and -0.0164 z-score in the test with DHX36.

B9: PARIS_ID42 (structured_RNA)
RNA: GGGAACGGCUAAUGUUGUGGCGACAGGUGGUGUACGAAGUUUCAGCCCAUUUUUCUAGUGAUGGCUUUGAGGUUAUUUGCAGUUUCCUAGCCAUCUCAAAGUGUGGCUGAAGCUUCGUGCAC
For B9, the binding signal in the test with U1A was 0.0388 z-score; with LIN28A it was 0.423 z-score; with CIRBP, 0.619 z-score; in the test with DHX36 it was 0.0752 z-score.

B10: hsa-mir-205 (structured_RNA)
RNA: GGGACGGCAUAGUCGGUCGAUAUUAUCCGGUGUACGAAGUUUCAGCAGUCUGUCUCAUACCCAACCAGAUUGCUGAAGCUUCGUGCAC
In the case of B10, the binding signal was 0.0334 z-score in the test with U1A, -0.18 z-score with LIN28A, -0.269 z-score in the test with CIRBP and -0.741 z-score in the test with DHX36.

B11: hsa-mir-1321 (structured_RNA)
RNA: GGGAAAGUCAGCGCGUUUGCAACGAAGGGGUGUACGAAGUUUCAGCCCUGUUUUACAAAUAAGGAAAUAAACUCAGGGCUGAAGCUUCGUGCAC
Take B11: the binding signal with U1A was 1.7 z-score; with LIN28A, 0.679 z-score; with CIRBP, 0.793 z-score; with DHX36 it was -0.19 z-score.

B12: hsa-mir-365b (structured_RNA)
RNA: GGGAAAACCUGGUUCAGUAACGACCGAGGGUGUACGAAGUUUCAGCAGCUGUGUUUUCUGACUCAGUCAUAAUGCUGAAGCUUCGUGCAC
For B12, the binding signal with U1A was 0.0372 z-score; with LIN28A, -0.499 z-score; in the test with CIRBP, 0.915 z-score; in the test with DHX36, 0.458 z-score.

B13: hsa-mir-199a-2 (structured_RNA)
RNA: GGGAAAACUACAGGGGCUGGUUUAGAGCGGUGUACGAAGUUUCAGCCUGUUCAGGACAAUGCCGUUGUACAGCUGAAGCUUCGUGCAC
As to B13, the binding signal in the test with U1A was 0.0431 z-score; with LIN28A, 0.0696 z-score; in the test with CIRBP, 0.841 z-score; in the test with DHX36, 0.172 z-score.

B14: hsa-mir-8089 (structured_RNA)
RNA: GGGAAUCGCGUAGACGUAAUUAGACGACGGUGUACGAAGUUUCAGCGGGGGCAGGCUGCCACCUCCUGGCUGAAGCUUCGUGCAC
As for B14, the binding signal turned out to be 0.0486 z-score in the test with U1A, 0.0571 z-score in the test with LIN28A, 1.53 z-score with CIRBP and 0.747 z-score with DHX36.

B15: hsa-mir-3119-2 (structured_RNA)
RNA: GGGAGGACUACGCUAGGUUUAUGCAGUCGGUGUACGAAGUUUCAGCUGGCAAAGACAUAGAUUGUUUAGCUACCCCUUUGCCAGCUGAAGCUUCGUGCAC
Regarding B15, the binding signal with U1A stood at 0.0398 z-score; with LIN28A, 1.53 z-score; with CIRBP, 0.736 z-score; with DHX36, 1.87 z-score.

B16: hsa-mir-4757 (structured_RNA)
RNA: GGGAGCGCGCUGAGCAACUAAUAGUCGAGGUGUACGAAGUUUCAGCCACGGUGUCUGCGGGAGGAGACCAUGGCUGAAGCUUCGUGCAC
Take B16: the results for the binding signal with U1A, with LIN28A and with DHX36 were 0.0428 z-score, -1.2 z-score and 0.308 z-score, respectively.

B17: hsa-mir-4762 (structured_RNA)
RNA: GGGAAUGCGAGACAUCUCGUUGGCAGUAGGUGUACGAAGUUUCAGCGAAGCCUUGAUCAGAAGCUAGGAAGGCUUCGCUGAAGCUUCGUGCAC
B17: the binding signal in the test with U1A amounted to 0.0366 z-score; in the test with LIN28A, 0.724 z-score; with CIRBP, 1.06 z-score; with DHX36 it was 0.44 z-score.

B18: hsa-mir-4274 (structured_RNA)
RNA: GGGAAAUACCGCAGAAGACCCCAAAGCAGGUGUACGAAGUUUCAGCGCCGGGGCCUGGCGCUCCUCUACCUUGUCAGGUGACCCAGCGCUGAAGCUUCGUGCAC
For the molecule B18, the binding signal with U1A is 0.0436 z-score; in the test with LIN28A it was -0.686 z-score; in the test with CIRBP, 0.458 z-score; in the test with DHX36, 0.0486 z-score.

B19: hsa-mir-1261 (structured_RNA)
RNA: GGGAAAGUUAAGACAGUAACUGUGCAAUGGUGUACGAAGUUUCAGCGCUUAUGGGGAUAUUGUGGUUGAUCUGUUCUAUCCAGAUGACGCUGAAGCUUCGUGCAC
In the case of B19, the binding signal worked out at 0.0342 z-score in the test with U1A, 0.836 z-score with LIN28A, 0.649 z-score in the test with CIRBP and 0.556 z-score with DHX36.

B20: G4_(GGGUU)6 (structured_RNA)
RNA: GGGACGCUGUCCUAAGAUGAACAUGCUCGGUGUACGAAGUUUCAGCGGGUUGGGUUGGGUUGGGUUGGGUUGGGUUGCUGAAGCUUCGUGCAC
As to B20, the binding signal with U1A is 1.7 z-score; in the test with LIN28A it was 1.43 z-score; with CIRBP, 4.07 z-score; with DHX36, 7.17 z-score.

B21: hsa-mir-4311 (structured_RNA)
RNA: GGGACAGUGAAAGCGACCGGCAUACUAGGGUGUACGAAGUUUCAGCUGUGACCUGGAGCAGCUCAGGAGGGCUUCCUGGGUGAGGUGGCAGGUUACAGCUGAAGCUUCGUGCAC
Consider B21, for which the binding signal with U1A is 0.0275 z-score; with LIN28A, -0.243 z-score; with CIRBP, -0.891 z-score; with DHX36, 0.224 z-score.

B22: hsa-mir-106a (structured_RNA)
RNA: GGGAGCGGUACUUCCGACCACAUCAGAUGGUGUACGAAGUUUCAGCGCAGGUAGCUUUUUGAGAUCUACUGCGCUGAAGCUUCGUGCAC
Take B22: the binding signal with U1A is 0.0262 z-score; with LIN28A, -2.03 z-score; in the test with CIRBP, -1.48 z-score; with DHX36, -0.746 z-score.
